Values quoted from earlier work as cited in US20210137911A1, “NOVEL CHRONOTHERAPY BASED ON CIRCADIAN RHYTHMS” (THE TRUSTEES OF THE UNIVERSITY OF PENNSYLVANIA, priority 2014, published 2021).

| Structure (SMILES) | ½ Life (in vivo) [h] | ½ Life (half-life of top selling therapeutic compounds (Table 1)) [h] |
| --- | --- | --- |
| CCC(=O)N(c1ccccc1)C1(C(=O)OC)CCN(CCC(=O)OC)CC1 | 0.016 | – |
| CCC(=O)N(c1ccccc1)C1(COC)CCN(CCn2nnn(CC)c2=O)CC1 | – | 1.5 |
| CCC(=O)N(c1ccccc1)C1(COC)CCN(CCc2cccs2)CC1 | 4.416 | – |

Read-outs that look alike come from different tables or passages of the source. This is a selection: effects in other tests are not listed, and their absence says nothing.
